Publication PMC12586182 (Frontiers in Oncology, 2025)

Protein sequences, listed by entry. Tags and fused reporters are not part of them. Residues count along the entry.
UniProt P06241, 1-534 isoform P06241-2: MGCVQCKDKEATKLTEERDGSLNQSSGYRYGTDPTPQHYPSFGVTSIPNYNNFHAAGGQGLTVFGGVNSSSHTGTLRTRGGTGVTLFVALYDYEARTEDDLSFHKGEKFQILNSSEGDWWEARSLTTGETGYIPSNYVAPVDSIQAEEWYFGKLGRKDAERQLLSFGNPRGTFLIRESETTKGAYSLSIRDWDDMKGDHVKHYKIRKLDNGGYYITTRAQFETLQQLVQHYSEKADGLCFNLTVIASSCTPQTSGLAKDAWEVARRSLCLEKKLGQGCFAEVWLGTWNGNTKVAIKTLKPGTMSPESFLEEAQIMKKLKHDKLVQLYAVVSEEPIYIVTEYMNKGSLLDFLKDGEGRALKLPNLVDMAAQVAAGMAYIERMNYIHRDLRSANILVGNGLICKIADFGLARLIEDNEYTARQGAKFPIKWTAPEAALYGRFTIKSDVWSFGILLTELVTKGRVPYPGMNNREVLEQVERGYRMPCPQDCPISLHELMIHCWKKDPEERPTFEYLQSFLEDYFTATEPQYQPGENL
UniProt P06241, whole entry: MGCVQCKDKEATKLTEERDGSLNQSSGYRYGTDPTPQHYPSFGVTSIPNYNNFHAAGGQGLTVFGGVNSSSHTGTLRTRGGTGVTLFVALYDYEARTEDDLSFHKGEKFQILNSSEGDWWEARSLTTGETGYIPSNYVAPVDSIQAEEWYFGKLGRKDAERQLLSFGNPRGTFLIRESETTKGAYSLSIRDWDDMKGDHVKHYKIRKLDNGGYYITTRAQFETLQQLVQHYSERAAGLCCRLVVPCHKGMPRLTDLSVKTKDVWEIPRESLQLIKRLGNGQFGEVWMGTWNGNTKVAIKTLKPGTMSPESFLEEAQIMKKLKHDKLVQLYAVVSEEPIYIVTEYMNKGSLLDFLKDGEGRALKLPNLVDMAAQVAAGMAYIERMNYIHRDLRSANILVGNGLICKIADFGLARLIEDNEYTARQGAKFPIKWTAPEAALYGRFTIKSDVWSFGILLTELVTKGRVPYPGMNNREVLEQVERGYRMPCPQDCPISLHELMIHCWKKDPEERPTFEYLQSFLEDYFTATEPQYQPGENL

Experiments:
Test in all cases: Kinase panel profiling at 1 µmol/L (mobility shift assay, Carna)
Assay type in all cases: biochemical
Settings in all cases: 1 µmol/L of BTK inhibitor
FYN [isoform b] = molecular target: T1, FYN [isoform b] (Homo sapiens, UniProt P06241)
T1 construct: purchased Carna Biosciences

SRC = molecular target: T2, SRC (Homo sapiens, UniProt P12931)
T2 construct: purchased Carna Biosciences

FYN [isoform a] = molecular target: T3, FYN [isoform a] (Homo sapiens, UniProt P06241)
T3 construct: purchased Carna Biosciences

O=C(c1ccc(Oc2ccccc2)cc1Cl)c1c[nH]c2ncnc(N[C@@H]3CC[C@@H](CO)OC3)c12 [nemtabrutinib]
Percentage inhibition of kinase enzyme activity (FYN [isoform b]): 99.62%
Percentage inhibition of kinase enzyme activity (SRC): 99.34%
Percentage inhibition of kinase enzyme activity (FYN [isoform a]): 100.28%
